The target of this assay is Sodium channel protein type 9 subunit alpha (Homo sapiens, UniProt Q15858). Put plainly: Inhibition of human NaV1.7 channel expressed in HEK293 cells by patch clamp electrophysiology assay. In kind it is cell-based. Background: Patch clamp records ionic current or voltage across a cell membrane.

The chains behind the UniProt entries cited, without tags or fusion partners.
UniProt Q15858, whole entry: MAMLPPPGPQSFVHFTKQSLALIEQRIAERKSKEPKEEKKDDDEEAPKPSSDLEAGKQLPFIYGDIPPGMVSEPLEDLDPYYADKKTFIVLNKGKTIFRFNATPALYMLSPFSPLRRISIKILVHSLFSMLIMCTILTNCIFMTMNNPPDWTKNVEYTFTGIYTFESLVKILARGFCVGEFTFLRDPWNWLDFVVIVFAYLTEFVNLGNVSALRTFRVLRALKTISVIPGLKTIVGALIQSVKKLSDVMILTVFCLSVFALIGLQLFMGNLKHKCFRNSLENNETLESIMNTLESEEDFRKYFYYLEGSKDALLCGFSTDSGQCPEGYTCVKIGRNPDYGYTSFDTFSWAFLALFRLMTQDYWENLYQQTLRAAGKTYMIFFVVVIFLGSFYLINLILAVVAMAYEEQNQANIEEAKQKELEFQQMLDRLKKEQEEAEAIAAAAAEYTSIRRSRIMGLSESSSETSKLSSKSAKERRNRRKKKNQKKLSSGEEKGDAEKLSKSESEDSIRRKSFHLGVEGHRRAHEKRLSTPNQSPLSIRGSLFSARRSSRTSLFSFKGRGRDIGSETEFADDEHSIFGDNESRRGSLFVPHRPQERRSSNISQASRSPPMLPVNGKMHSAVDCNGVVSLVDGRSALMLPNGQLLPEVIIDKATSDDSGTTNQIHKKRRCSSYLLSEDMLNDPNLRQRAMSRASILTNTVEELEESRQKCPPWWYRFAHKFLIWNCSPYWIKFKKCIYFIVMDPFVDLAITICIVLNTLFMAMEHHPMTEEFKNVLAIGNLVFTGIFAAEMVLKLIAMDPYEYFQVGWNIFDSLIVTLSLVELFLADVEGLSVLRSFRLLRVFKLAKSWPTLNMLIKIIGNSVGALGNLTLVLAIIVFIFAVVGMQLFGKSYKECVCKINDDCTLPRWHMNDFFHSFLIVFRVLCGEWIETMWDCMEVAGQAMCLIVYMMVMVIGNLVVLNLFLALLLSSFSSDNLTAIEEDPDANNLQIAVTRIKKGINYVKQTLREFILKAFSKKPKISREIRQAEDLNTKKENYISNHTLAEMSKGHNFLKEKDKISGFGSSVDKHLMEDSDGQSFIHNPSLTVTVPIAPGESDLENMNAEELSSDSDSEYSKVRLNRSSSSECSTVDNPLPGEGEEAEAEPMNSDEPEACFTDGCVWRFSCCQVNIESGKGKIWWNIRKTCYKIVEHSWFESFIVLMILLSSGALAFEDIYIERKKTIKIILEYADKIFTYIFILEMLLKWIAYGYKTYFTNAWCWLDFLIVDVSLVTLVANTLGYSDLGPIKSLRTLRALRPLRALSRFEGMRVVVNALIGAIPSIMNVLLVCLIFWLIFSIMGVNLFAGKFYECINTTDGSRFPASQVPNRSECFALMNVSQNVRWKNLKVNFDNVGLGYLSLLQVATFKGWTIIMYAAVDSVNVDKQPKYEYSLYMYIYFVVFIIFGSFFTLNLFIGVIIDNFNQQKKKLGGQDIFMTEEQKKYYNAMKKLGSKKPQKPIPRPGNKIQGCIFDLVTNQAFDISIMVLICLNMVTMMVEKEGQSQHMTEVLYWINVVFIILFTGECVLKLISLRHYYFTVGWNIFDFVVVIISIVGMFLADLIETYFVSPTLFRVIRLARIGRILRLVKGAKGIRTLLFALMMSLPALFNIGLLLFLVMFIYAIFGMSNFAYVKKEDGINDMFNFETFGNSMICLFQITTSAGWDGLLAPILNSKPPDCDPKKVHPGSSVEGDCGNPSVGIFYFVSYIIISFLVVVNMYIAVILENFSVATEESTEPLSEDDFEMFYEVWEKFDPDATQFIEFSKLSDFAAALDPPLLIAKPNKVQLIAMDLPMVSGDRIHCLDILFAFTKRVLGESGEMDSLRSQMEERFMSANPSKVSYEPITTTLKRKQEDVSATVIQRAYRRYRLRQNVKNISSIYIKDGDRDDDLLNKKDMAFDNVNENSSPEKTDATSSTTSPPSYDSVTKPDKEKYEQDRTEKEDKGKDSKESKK

This is an account of results in ChEMBL document CHEMBL3616397, “Voltage-Gated Sodium Channels: Structure, Function, Pharmacology, and Clinical Indications” (J Med Chem, 2015).

By IC50 is commonly meant the midpoint of a concentration-inhibition curve. A high value points to weaker potency. In turn, `O=S(=O)(Nc1ncns1)c1cc(F)c(OC[C@@H]2CNCC[C@H]2c2ccc(Cl)c(F)c2)cc1F` displayed an IC50 of 0.9 nM.
